Compound in series [1]: O=C1C(c2cccc3ccccc23)Oc2ccccc2N1Cc1ccc(F)cc1
Description: Inhibition of recombinant human His-tagged GSK3beta assessed as substrate Vmax at 7.5 uM using GS-2 peptide as substrate in presence of [33P]gamma-ATP after 15 mins by microbeta counting method (reference value: 5872 +/- 560 cpm).

Compound in series [2]: O=C1C(c2cccc3ccccc23)Oc2ccccc2N1Cc1ccc(F)cc1
The experiment in a line: Inhibition of recombinant human His-tagged GSK3beta assessed as substrate Vmax at 2.5 uM using GS-2 peptide as substrate in presence of [33P]gamma-ATP after 15 mins by microbeta counting method (reference value: 5872 +/- 560 cpm).

Compound in series [3]: O=C1C(c2cccc3ccccc23)Oc2cc3c(cc2N1Cc1ccccc1)OCO3
The experiment in a line: Inhibition of recombinant human His-tagged GSK3beta assessed as substrate Vmax at 12 uM using GS-2 peptide as substrate in presence of [33P]gamma-ATP after 15 mins by microbeta counting method (reference value: 19490 +/- 852 cpm).

Compound in series [4]: O=C1C(c2cccc3ccccc23)Oc2ccccc2N1Cc1ccc(F)cc1
The experiment in a line: Inhibition of recombinant human His-tagged GSK3beta assessed as substrate Vmax at 5 uM using GS-2 peptide as substrate in presence of [33P]gamma-ATP after 15 mins by microbeta counting method (reference value: 5872 +/- 560 cpm).

Compound in series [5]: O=C1C(c2cccc3ccccc23)Oc2ccccc2N1Cc1ccc(F)cc1
Description: Inhibition of recombinant human His-tagged GSK3beta assessed as substrate Km at 5 uM using GS-2 peptide as substrate in presence of [33P]gamma-ATP after 15 mins by microbeta counting method (reference value: 11.8 +/- 2.2 uM).

Compound in series [6]: O=C1C(c2cccc3ccccc23)Oc2cc3c(cc2N1Cc1ccccc1)OCO3
Description: Inhibition of recombinant human His-tagged GSK3beta assessed as substrate Vmax at 6 uM using GS-2 peptide as substrate in presence of [33P]gamma-ATP after 15 mins by microbeta counting method (reference value: 19490 +/- 852 cpm).

Compound in series [7]: O=C1C(c2cccc3ccccc23)Oc2cc3c(cc2N1Cc1ccccc1)OCO3
Description: Inhibition of recombinant human His-tagged GSK3beta assessed as substrate Vmax at 3 uM using GS-2 peptide as substrate in presence of [33P]gamma-ATP after 15 mins by microbeta counting method (reference value: 19490 +/- 852 cpm).

Compound in series [8]: O=C1C(c2cccc3ccccc23)Oc2cc3c(cc2N1Cc1ccccc1)OCO3
Description: Inhibition of recombinant human His-tagged GSK3beta assessed as substrate Km at 9 uM using GS-2 peptide as substrate in presence of [33P]gamma-ATP after 15 mins by microbeta counting method (reference value: 9.9 +/- 0.9 uM).

Compound in series [9]: O=C1C(c2cccc3ccccc23)Oc2ccccc2N1Cc1ccc(F)cc1
Description: Inhibition of recombinant human His-tagged GSK3beta assessed as substrate Km at 2.5 uM using GS-2 peptide as substrate in presence of [33P]gamma-ATP after 15 mins by microbeta counting method (reference value: 11.8 +/- 2.2 uM).

Compound in series [10]: O=C1C(c2cccc3ccccc23)Oc2cc3c(cc2N1Cc1ccccc1)OCO3
The experiment in a line: Inhibition of recombinant human His-tagged GSK3beta assessed as substrate Km at 6 uM using GS-2 peptide as substrate in presence of [33P]gamma-ATP after 15 mins by microbeta counting method (reference value: 9.9 +/- 0.9 uM).

Compound in series [11]: O=C1C(c2cccc3ccccc23)Oc2ccccc2N1Cc1ccc(F)cc1
Description: Inhibition of recombinant human His-tagged GSK3beta assessed as substrate Km at 1.25 uM using GS-2 peptide as substrate in presence of [33P]gamma-ATP after 15 mins by microbeta counting method (reference value: 11.8 +/- 2.2 uM).

Compound in series [12]: O=C1C(c2cccc3ccccc23)Oc2ccccc2N1Cc1ccc(F)cc1
The experiment in a line: Inhibition of recombinant human His-tagged GSK3beta assessed as substrate Vmax at 1.25 uM using GS-2 peptide as substrate in presence of [33P]gamma-ATP after 15 mins by microbeta counting method (reference value: 5872 +/- 560 cpm).

Compound in series [13]: O=C1C(c2cccc3ccccc23)Oc2ccccc2N1Cc1ccc(F)cc1
Description: Inhibition of recombinant human His-tagged GSK3beta assessed as substrate Km at 7.5 uM using GS-2 peptide as substrate in presence of [33P]gamma-ATP after 15 mins by microbeta counting method (reference value: 11.8 +/- 2.2 uM).

Compound in series [14]: O=C1C(c2cccc3ccccc23)Oc2cc3c(cc2N1Cc1ccccc1)OCO3
Description: Inhibition of recombinant human His-tagged GSK3beta assessed as substrate Km at 12 uM using GS-2 peptide as substrate in presence of [33P]gamma-ATP after 15 mins by microbeta counting method (reference value: 9.9 +/- 0.9 uM).

Compound in series [15]: O=C1C(c2cccc3ccccc23)Oc2cc3c(cc2N1Cc1ccccc1)OCO3
Description: Inhibition of recombinant human His-tagged GSK3beta assessed as substrate Km at 3 uM using GS-2 peptide as substrate in presence of [33P]gamma-ATP after 15 mins by microbeta counting method (reference value: 9.9 +/- 0.9 uM).

Compound in series [16]: O=C1C(c2cccc3ccccc23)Oc2cc3c(cc2N1Cc1ccccc1)OCO3
The experiment in a line: Inhibition of recombinant human His-tagged GSK3beta assessed as substrate Vmax at 9 uM using GS-2 peptide as substrate in presence of [33P]gamma-ATP after 15 mins by microbeta counting method (reference value: 19490 +/- 852 cpm).

The source of these data is ChEMBL document CHEMBL4190256, “First dual AK/GSK-3β inhibitors endowed with antioxidant properties as multifunctional, potential neuroprotective agents” (Eur J Med Chem, 2017).

As usually defined, the Km is the substrate concentration at which the rate is half of its maximum.

B1: Glycogen synthase kinase-3 beta (Homo sapiens), P49841 (protein)
chain: MSGRPRTTSFAESCKPVQQPSAFGSMKVSRDKDGSKVTTVVATPGQGPDRPQEVSYTDTKVIGNGSFGVVYQAKLCDSGELVAIKKVLQDKRFKNRELQIMRKLDHCNIVRLRYFFYSSGEKKDEVYLNLVLDYVPETVYRVARHYSRAKQTLPVIYVKLYMYQLFRSLAYIHSFGICHRDIKPQNLLLDPDTAVLKLCDFGSAKQLVRGEPNVSYICSRYYRAPELIFGATDYTSSIDVWSAGCVLAELLLGQPIFPGDSGVDQLVEIIKVLGTPTREQIREMNPNYTEFKFPQIKAHPWTKVFRPRTPPEAIALCSRLLEYTPTARLTPLEACAHSFFDELRDPNVKLPNGRDTPALFNFTTQELSSNPPLATILIPPHARIQAAASTPTNATAASDANTGDRGQTNNAASASASNST
On to B1, for which the Vmax amounted to 2750 cpm in series [1]; 4030 cpm in series [2]; 5290 cpm in [3]; 3300 cpm in [4]; 10300 cpm in series [6]; 14000 cpm in series [7]. The Vmax is 4540 cpm in series [12] and 7980 cpm in series [16]. Moreover, the Km in series [5] was 9.3 µM; in series [8], 10.9 µM; in series [9] it was 10.1 µM; in series [10] it was 9.9 µM; in series [11], 9.5 µM; in series [13], 11 µM. The Km in series [14] is 10.2 µM; in series [15], 10.3 µM.
